Laboratory results published in patent WO2005044853A2 (dated 2005).
Numbering of substitutions follows the chain as printed. Values joined by “and” are separate entries in the source; they are usually repeats but may differ in a detail not shown here. Equal entries are not always repeated. Blank lines part the entries; values can stand above or below the binder they belong to.

Protein sequences, listed by entry. Tags and fused reporters are not part of them. Chains listed by the source or under a name are the forms on record and can include a tag or linker.
UniProt P15692, other isoform, or with tags, fused parts or gaps limits assumed: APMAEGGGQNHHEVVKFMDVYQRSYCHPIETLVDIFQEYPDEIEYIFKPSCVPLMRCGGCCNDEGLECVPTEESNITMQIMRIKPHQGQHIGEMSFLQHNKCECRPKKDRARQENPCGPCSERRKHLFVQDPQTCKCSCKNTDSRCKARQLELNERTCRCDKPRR
UniProt Q00731, other isoform, or with tags, fused parts or gaps limits assumed: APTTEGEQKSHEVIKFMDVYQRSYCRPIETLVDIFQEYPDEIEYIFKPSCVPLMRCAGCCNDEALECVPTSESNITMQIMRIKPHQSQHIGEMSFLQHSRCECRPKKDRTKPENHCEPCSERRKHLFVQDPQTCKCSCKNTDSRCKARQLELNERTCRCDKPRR

Experiments:
[1] = molecular target: T1, human VEGF (human, UniProt P15692-4 27-191, limits assumed); experiment: cell-based or functional assay
[2] = molecular target: T2, murine VEGF (mouse, UniProt Q00731-2 27-190, limits assumed); experiment: competition-binding phage ELISA at 25C, Fab on phage
T2 construct: also called mVEGF; mouse VEGF

[3] = molecular target: T1, human VEGF; experiment: as above
[4] = molecular target: T2, murine VEGF; experiment: cell-based or functional assay
[5] = molecular target: T2, murine VEGF; experiment: SPR (Figure 8), Fab
[6] = molecular target: T1, human VEGF; experiment: SPR (Figure 8), Fab

IC50 of inhibition of VEGF induced HUVEC proliferation [1]: ~12 nM
B1: YADS2 Fab (Fab, V domains shown)
VH: EVQLVESGGGLVQPGGSLRLSCAASGFAISDYDIHWVRQAPGKGLEWVADIAPYAGATAYADSVKGRFTISADTSKNTAYLQMNSLRAEDTAVYYCSRSSYAYYAAMDYWGQGTLVTVSS
VL: DIQMTQSPSSLSASVGDRVTITCRASQSYAYAVAWYQQKPGKAPKLLIYDASYLYSGVPSRFSGSGSGTDFTLTISSLQPEDFATYYCQQAYSSPDTFGQGTKVEIKR

IC50 [2]: 0.5 nM and 1 nM
IC50 [3]: 0.5 nM and 1 nM
B2: G6 Fab (Fab, V domains shown)
VH: EVQLVESGGGLVQPGGSLRLSCAASGFTISDYWIHWVRQAPGKGLEWVAGITPAGGYTYYADSVKGRFTISADTSKNTAYLQMNSLRAEDTAVYYCARFVFFLPYAMDYWGQGTLVTVSS
VL: B1 VL with S28D, Y29V, A30S, Y31T, D50S, Y53F, A91S, S93T, S94T, D96P
notes: also called G6 antibody; G6 clone

fold improvement over G6 in inhibiting HuVEC growth [4]: ≥ 100 fold
fold improvement over G6 in inhibiting HuVEC growth [1]: ≥ 100 fold
B3: G6-31 Fab (Fab, V domains shown)
VH: B2 VH
VL: B1 VL with S28D, Y29V, A30S, Y31T, D50S, Y53F, A91G, S93G, S94N, D96F

fold improvement in Kd over G6 [5]: ≥ 7 fold
fold improvement in Kd over G6 [6]: ≥ 7 fold
fold improvement over G6 in inhibiting HuVEC growth [4]: ≥ 100 fold
fold improvement over G6 in inhibiting HuVEC growth [1]: ≥ 100 fold
B4: G6-23 Fab (Fab, V domains shown)
VH: B2 VH
VL: DIQMTQSPSSLSASVGDRVTITCRASQDVSTAVAWYQQKPGKAPKLLIYSASFLYSGVPSRFSGSGSGTDFTLTISSLQPEDFATYYCKQGYANPWTFGQGTKVEIKR
notes: also called Fab-G6-23; FabG6-23
